From patent US7533723B2, “Well bore treatment fluid” (Schlumberger Technology Corporation, priority 2003, dated 2009)

Test: Solubility in brine, oils and solvents (heat to 60° C., cool to 25° C., visual inspection, residue filtered and weighed)
Settings: T=25° C.; for Solubility, Oil wt %: Mineral spirits, bp 179–210° C.; for Solubility, Brine wt %: brine = 1 mol/L NaCl, wet salts as active (dry) weight
[1] = EB (ethylene glycol butyl ether)

Substance | Solubility, Solvent wt % (solvent chemistry) (1,3-butanediol) | Solubility, Solvent wt % (solvent chemistry) (4-hydroxy 4-methyl 2-pentanone) | Dissolution in DOWANOL DPM (FIG. 2) (20 wt % in DPM) | Solubility, Solvent wt % (solvent chemistry) (DPM (dipropylene glycol methyl ether)) | Solubility, Solvent wt % (solvent chemistry) [1] | Solubility, Solvent wt % (solvent chemistry) (IPA (isopropanol)) | Solubility, Oil wt % | Solubility, Solvent wt % (solvent chemistry) (PnB (propylene glycol butyl ether)) | Solubility, Brine wt % | Solubility, Solvent wt % (solvent chemistry) (butan-1-ol) | Solubility, Solvent wt % (solvent chemistry) (butan-2-ol) | Solubility, Solvent wt % (solvent chemistry) (octan-1-ol) | Dissolution in DOWANOL DPM (FIG. 2) (5 wt % in DPM)
calcium neo-decanoate [Ca neo-Decanoate (dry^B)] | 0.5 wt % | ≧30 (4-hydroxy 4-methyl 2- wt % | no visible precipitate | Glycol ethers: ≧30 (DPM^(3)), wt % | ≧30 (EB^(4)), ≧30 (PnB^(5)). wt % | Alcohols: ≧30 (IPA^(6)), ≧30 wt % | 0.5^(2) wt % | ≧30 (EB^(4)), ≧30 (PnB^(5)). wt % | 0.5 wt % | Alcohols: ≧30 (IPA^(6)), ≧30 wt % | (butan-1-ol), ≧30 (butan-2- wt % | ≥ 30 wt % | –
calcium neo-tridecanoate [Ca neo-Tridecanoate (dry)] | – | – | – | – | ≧30 (EB^(4)) wt % | – | 0.5^(2) wt % | – | 0.5 wt % | – | – | – | –
calcium pivalate [Ca Pivalate, reference compound] | – | – | – | – | – | – | – | – | – | – | – | – | has not dissolved
